What was measured:
rats = test: In vivo osteogenesis of subcutaneously implanted BMP-2 devices; settings: BSA/Mg(OH)2-containing PLGA formulation implanted subcutaneously, data not shown
Source text: In both cases, a controlled release of protein was observed over 28 days (data not shown) resulting in a recovery (released+soluble residue fraction) of >80% (Table 3). In contrast, when the base was removed from the formulation (18% gum arabic), only 30% protein was recovered by the immunoassay. Therefore, the stability characteristic of BMP-2 in PLGA millicylinders was very similar to that of bFGF (although additional stabilizers were used for bFGF) with and without the addition of the basic additive. For both growth factors, in the absence of basic additive, the protein was released mostly on the first day and only a small amount of protein could be recovered from the polymer after 28 days release. In the presence of the basic salt, both proteins were continuously released with >80% recoverable in the 28-day experiment. Moreover, the in vivo biological activities (angiogenesis in nude mice for the bFGF and osteogenesis in rats for the BMP-2) of the BSA/Mg(OH)2-containing formulations were also confirmed when the devices were implanted subcutaneously (data not shown).

[1] = rhBMP-2 solubility in water with heparin; format: physicochemical; settings: weight ratio of heparin/rhBMP-2 above 4
Source text: To prepare the rhBMP-2/PLGA microspheres by the standard water-in-oil-in-water emulsion method, one major difficulty is the low aqueous solubility of rhBMP-2 at neutral pH, which prevents attainment of a high loading of rhBMP-2 in PLGA microspheres. To overcome this problem, the first approach was to add heparin as a polyanion to increase rhBMP-2 solubility at neutral pH. […] Therefore a heparin-rhBMP-2 complex (heparin/rhBMP-2 ration 7) was co-encapsulated with BSA into PLGA microspheres. […] The second approach was to decrease the pH in the buffer to increase rhBMP-2 solubility. Since BSA is not stable at low pH, obviously BSA is not a good candidate as a bulk excipient for rhBMP-2 delivery from PLGA microspheres. […] Therefore, 400 μl of water was directly added to one vial of rhBMP-2 lyophilized cake to prepare a 20 mg/ml rhBMP-2 solution containing a high concentration of salts at pH 4.5. Although rhBMP-2 is a relatively stable growth factor at an acidic pH below room temperature, rhBMP-2 may not survive when exposed to both body temperature and acidic microclimate caused by PLGA degradation (e.g., pH<2).

## rhBMP-2: recombinant human bone morphogenetic protein-2
rats
  in vivo biological activity, osteogenesis: confirmed
[1]
  rhBMP-2 concentration remaining soluble in water: ≥ 20 mg/mL
